Literature values, collected in paper PMC8929351 (Pharmacology Research & Perspectives, 2022).

Tested on: rat µ receptor
Conditions: cited from earlier work

Structure (SMILES): CN1CC[C@]23c4c5ccc(O)c4O[C@H]2[C@@H](O)C=C[C@H]3[C@H]1C5 [Morphine]
- Operational tau: 5.2 ± 0.2
